Reference: article PMC6150007 (Molecules : A Journal of Synthetic Chemistry and Natural …, 2017)

Test system: striatal monoamines and metabolites
Conditions: 63.5 µmol/kg intraperitoneal; 60 min; vs saline

## N[C@@H](Cc1ccc(O)c(O)c1)C(=O)O [L-Dopa]
  striatal DOPAC levels: significantly enhanced
